Test system: GnRH-Receptor
Assay: GnRH-Receptor expression after FSH and LH stimulation of HCFs and HKCs (Western blot)
Format: cell-based, human
Details: 48 hours, FSH 2.5 and 10 miu/ml, LH 5 and 35 miu/ml, in a dose dependent manner, FIGS. 10A and 10B
Description: In FIGS. 10A and 10B HCFs and HKCs were seeded in 12-well plates at 5×10^5 cells/well in regular media. 24 hours later media was replaced for treatment media (regular media supplemented with the treatment). The treatments consisted of: FSH: 2.5 and 10 miu/ml; LH: 5 and 35 miu/ml. After 48 hours treatment finished and all the wells were wash with PBS and proteins were extracted using 1 ml of RIPA buffer 1×. Bradford assay (Thermo scientific, IL, USA) was carried out to determine the protein concentration and normalize the samples. For western blot analysis samples were mixed with loading buffer and equal amounts of protein were loaded (25 μg per lane) on a 4-20% Tris-Glycine gel (Novex, Life technologies, Carlsbad, CA) and electrophoresed at 135-140V for 1.5 hour. Each sample was run single. Thereafter, the gel was transferred on to a nitrocellulose membrane (Novex, Nitrocellulose membrane, Life Technologies, Carlsbad, CA), at 100V for 1 hour on ice. Finally, the membranes were blocked in milk (5% milk in TBST; Thermo scientific, IL, USA) for 1 hour and incubated overnight in the rocker at 4° C. with the primary antibody at 1:250 dilution. The primary antibodies used for this experiment were rabbit polyclonal to LHR (ab125214, Abcam, Cambridge, MA), and Rabbit polyclonal GNRHR (ab183079, Abcam, Cambridge, MA). […]

| Substance | GnRH-Receptor modulation |
| --- | --- |
| LH: hormone produced by gonadotropic cells in the anterior pituitary gland | modulated |
| FSH: gonadotropin, glycoprotein polypeptide hormone synthesized and secreted by the gonadotropic cells of the anterior pituitary gland | modulated |

From US12442827B2, “Detection and treatment of conditions related to luteinizing hormone/follicle-stimulating hormone (LH/FSH) levels” (UNIVERSITY OF NORTH TEXAS HEALTH SCIENCE CENTER AT FORT …, priority 2019, dated 2025)
